According to publication PMC5797947:

Assays:
Experiment in all cases: SPR
[1] = target: HAT-40pM, high-affinity TCR heterodimer, biotinylated
[2] = target: HAT-140pM, high-affinity TCR heterodimer, biotinylated
[3] = target: HAT-2nM, high-affinity TCR heterodimer, biotinylated

In the case of “pHLA-vrt3: HLA-A0201 with the NS3-1406 variant peptide vrt3 (from UniProt P61769 21-119) (peptide-MHC)”, the Kd [1] is reported as 2.7 nM, the Kd [2] is reported as 54 nM and the Kd [3] is reported as 180 nM.
